Key:
[1] = Iontophoretic drug delivery through skin in vertical flow-through diffusion cell, HPLC of receptor solution (pig skin)
[2] = Iontophoretic drug delivery through skin in vertical flow-through diffusion cell, skin type not specified for these values; conditions: delivery of HM-HCl 0.1M, enhancer 100 mg/ml (10.0%)

CCCCCCCC/C=C\CCCCCCCC(=O)O [Oleic acid, cis-9-octadecenoic acid]
Steady State Delivery Rate ± sd ([1]; delivery of oxymorphone, oleic acid 2 mg/ml (0.2%) in 56/44 (E/W), current 0 mA): 1280 ± 221 µg/h
Steady State Delivery Rate ± sd ([1]; delivery of oxymorphone, oleic acid 2 mg/ml (0.2%) in 56/44 (E/W), current 0.25 mA): 2204 ± 140 µg/h
Steady State Delivery Rate ± sd ([1]; delivery of oxymorphone, oleic acid 2 mg/ml (0.2%) in 56/44 (E/W), current 0.50 mA): 2597 ± 338 µg/h
Steady State Delivery Rate ± sd ([1]; delivery of oxymorphone, oleic acid 2 mg/ml (0.2%) in 56/44 (E/W), current 0.75 mA): 3476 ± 465 µg/h
Steady State Delivery Rate ± sd ([1]; delivery of oxymorphone, oleic acid 2 mg/ml (0.2%) in 56/44 (E/W), current 1.0 mA): 3806 ± 512 µg/h
Steady State Delivery Rate ± sd ([1]; delivery of oxymorphone, oleic acid 5 mg/ml (0.5%) in 62/38 (E/W), current 0 mA): 1734 ± 102 µg/h
Steady State Delivery Rate ± sd ([1]; delivery of oxymorphone, oleic acid 5 mg/ml (0.5%) in 62/38 (E/W), current 0.25 mA): 2832 ± 91 µg/h
Steady State Delivery Rate ± sd ([1]; delivery of oxymorphone, oleic acid 5 mg/ml (0.5%) in 62/38 (E/W), current 0.50 mA): 3699 ± 222 µg/h
Steady State Delivery Rate ± sd ([1]; delivery of oxymorphone, oleic acid 5 mg/ml (0.5%) in 62/38 (E/W), current 0.75 mA): 4583 ± 304 µg/h
Steady State Delivery Rate ± sd ([1]; delivery of oxymorphone, oleic acid 5 mg/ml (0.5%) in 62/38 (E/W), current 1.0 mA): 5597 ± 433 µg/h
Steady State Delivery Rate ± sd ([1]; delivery of oxymorphone-HCl, oleic acid 0.25 mg/ml (0.025%), E/W 48/52, 1 mA): 916 ± 38 »g/hr
Steady State Delivery Rate ± sd ([1]; delivery of oxymorphone-HCl, oleic acid 0.50 mg/ml (0.050%), E/W 48/52, 1 mA): 1583 ± 613 »g/hr
Steady State Delivery Rate ± sd ([1]; delivery of oxymorphone-HCl, oleic acid 1.0 mg/ml (0.10%), E/W 52/48, 1 mA): 2230 ± 877 »g/hr
Steady State Delivery Rate ± sd ([1]; delivery of oxymorphone-HCl, oleic acid 2.0 mg/ml (0.20%), E/W 56/44, 1 mA): 3806 ± 512 »g/hr
Steady State Delivery Rate ± sd ([1]; delivery of oxymorphone-HCl, oleic acid 2.5 mg/ml (0.25%), E/W 56/44, 1 mA, two identical tests on different days): 5020 ± 748 »g/hr
Steady State Delivery Rate ± sd ([1]; delivery of oxymorphone-HCl, oleic acid 5.0 mg/ml (0.50%), E/W 67/33, 1 mA): 5597 ± 433 »g/hr

CCCCCCCCCC(=O)O [Capric acid, decanoic acid]
Steady State Delivery Rate ± sd ([2]; E/W 60/40, current 1 mA): 4674 ± 679 µg/h

CCCCCCCC(=O)O [Caprylic acid, octanoic acid]
Steady State Delivery Rate ± sd ([2]; E/W 48/52, current 1 mA): 4289 ± 597 µg/h
